Experimental data: PMC4229119, “Alzheimer's Therapeutics Targeting Amyloid Beta 1–42 Oligomers II: Sigma-2/PGRMC1 Receptors Mediate Abeta 42 Oligomer Binding and Synaptotoxicity” (PLoS ONE, 2014)

The chains behind the UniProt entries cited, without tags or fusion partners.
UniProt Q5BJF2, whole entry: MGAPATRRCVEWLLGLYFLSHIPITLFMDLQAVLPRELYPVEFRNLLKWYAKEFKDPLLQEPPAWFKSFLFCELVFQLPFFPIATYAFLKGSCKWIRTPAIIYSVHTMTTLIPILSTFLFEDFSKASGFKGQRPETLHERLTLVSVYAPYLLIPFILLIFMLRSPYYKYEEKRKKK

Key:
[1] = test system: synapses; details: cited from earlier work
[2] = test system: mouse models of Alzheimer's disease; details: cited from earlier work
[3] = test system: mixed cultures of hippocampal plus cortical neurons and glia; details: cited from earlier work
[4] = test system: endogenous Abeta oligomers in human AD patient brain sections; test: Human tissue ex-vivo Abeta competition (plaque halo of AD brain sections); details: unfixed AD neocortex sections, 1 hour; CT01344 5 or 15 µM (Spearman's Rho = −0.492, p = 0.038); antibody 1 ng/ml (p<0.05)
Method: Brains from human subjects with a diagnosis of AD (CERAD score “definite” by postmortem neuropathological exam) were obtained through the Massachusetts Alzheimer's Disease Research Center and Massachusetts General Hospital (MGH) Neuropathology Department, and experiments were approved by the Massachusetts General Hospital and Harvard Medical School Institutional Review Board. […] Fluorescent images of the sections were analyzed in ImageJ [42] analysis software using a custom macro which first identifies dense core plaques labeled by Thio-S and then measures the average Abeta labeling intensity in a 2 micron wide ring surrounding each plaque. A total of 346 to 464 plaques from six donor specimens were analyzed for each treatment group. The median intensities of Abeta labeling in the two micron area surrounding each plaques were calculated for each section (6 sections per treatment group) and subjected to multivariate correlation analysis (Spearman's test) to compare treatment effects across all donor brain samples.

[5] = biological target: sigma-2/PGRMC1 receptor (Homo sapiens, UniProt Q5BJF2); test: Sigma-2 radioligand binding ([3H]DTG competition, Jurkat cell membranes; Cerep 0148); details: read-out: Ki, displacement of selective radioligand [3H]-DTG from sigma-2/PGRMC1 receptor; homogenates of a human T cell line; mean ± S.E.M.

Row | Compound | restoration of synapses [1] | restoration of cognitive function [2] | reversal of Abeta oligomer-mediated trafficking deficits [3] | Abeta immunofluorescence in the 2 micron wide halo around plaques [4] | Ki [5] [nM]
1 | C[C@H](CCc1ccc(Cl)c(Cl)c1)NCc1ccc(C(F)(F)F)cc1 | restore synapses to normal | restore cognitive function | reverse Abeta oligomer-mediated trafficking deficits | dose-dependently reduced Abeta immunofluorescence | 
2 | C[C@H](CCc1ccc(Cl)cc1)NCc1ccc(C(F)(F)F)cc1 | restore synapses to normal | restore cognitive function | reverse Abeta oligomer-mediated trafficking deficits |  | 50
